pIC50: −log10 of the molar value.
Target: Adenosine receptor A2a (Homo sapiens, UniProt P29274)
Test: Inhibition of 1 uM NECA-stimulated cyclic AMP levels in human platelets
Type: functional

Nc1nc2c(cnn2CCCc2ccccc2)c2nc(-c3ccco3)nn12 [SCH-63390]
pIC50: 7.74

Reference: ChEMBL document CHEMBL1131246, “Design, synthesis, and biological evaluation of a second generation of pyrazolo[4,3-e]-1,2,4-triazolo[1,5-c]pyrimidines as potent and selective A2A adenosine receptor antagonists” (J Med Chem, 1998)
